Most compounds without a hit are left out; they make up all but 0.53% or so of the library.
Rango dissoc inh – inhibitors of RanGTP-induced Rango-importin beta complex dissociation | O95149+P62826 | Biochemical FRET Rango-importin beta, RanGTP-induced dissociation | Potency, µM (series often up to 46.1 µM) | hit rate 0.071% among 340,000; note: nearly all actives have a fitted effect of over 45% in size
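Two FRET readings bracket the reaction: one 5 min after compound meets Rango–importin beta, another 45 min after RanGTP-RCC1 (0.6 uM Ran, 0.2 uM RCC1, 2 mM GTP) is added. Only the second defines inhibition.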
CCT modulator – modulators of cytosolic chaperonin (CCT/TRiC) activity. purified chaperonin ATPase assay, HTRF ADP detection, 30 min. activity change, % (concentration not given with the values), hits read low. hit rate 0.3% among 360,000. AID 651819; in the data active = activity change below about -30%
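Enzyme 40 or 20 nM (batch-dependent) in Tris pH 7.4/KCl/MgCl2/DTT; cpd 76 uM single point; ATP 10 uM; 30 min 37 °C; Transcreener ADP HTRF detection, 30 min RT; ratio 665/615.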
Giardia kill – kills Giardia lamblia; Giardia lamblia trophozoite viability; activity change, % at 7.66 µM, hits read low; hit rate 0.15% among 340,000; AID 540267; in the data active = activity change below about -80%; inconclusive = between about -30% and that limit;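 note: parasites exposed to compound for two days anaerobically before the ATP read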
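Media and compound were dispensed first, then trophozoites at 100 cells/well; plates sat 48 hrs at 37 deg C without oxygen before ATP luminescence reagent was added and read after 15-30 min at room temperature.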
MmCpn inh – inhibitors of Methanococcus maripaludis chaperonin TRiC (MmCpn); purified Mm-Cpn ATPase, ADP Transcreener TR-FRET; Potency, µM (series often up to 76.9 µM), hits mostly inhibitors; hit rate 0.031% among 330,000; active = well fitted inhibition curve with a large enough effect; inconclusive = small, poorly fitted or top-dose-only effect; note: nearly all actives have a fitted effect of over 80% in size
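Purified archaeal Mm-CPN (25nM final) preincubated 10 min at 37degC with compound, then 10uM ATP for 30 min at 37degC; ADP measured by HTRF Transcreener TR-FRET; buffer 30 mM TRIS pH 7.4, 100mM KCl, 5mM MgCl2, 1mM DTT.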
Rango complex inh – inhibitors of Rango-importin beta complex formation | Q14974 | hit rate 0.031% among 340,000 | Rango CFP/YFP FRET sensor + importin beta, 45 min | AID 540263 | Potency, µM (titrated, usually from 92.2 µM); note: nearly all actives have a fitted effect of over 15% in size
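FRET biosensor Rango (snurportin 1 IBB between N-terminal EYFP and C-terminal Cerulean), 50 nM in PBS/1 mM DTT/0.02% Tween-20/0.1% BSA, preincubated 5 min RT with compound; 0.125 microM importin beta added, 45 min RT, CFP/YFP FRET ratio read.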
Large screens that a line does not name were inactive; [ ] = remark or other dose. Unless noted, calls come from the whole dose curve.

CC1Oc2cc3c(-c4c(O)cc(O)c5c(O)c6c(cc45)OC(C)C(C)C6=O)c(O)cc(O)c3c(O)c2C(=O)C1C (stereo not given)	Giardia kill -82
C=CCN1C(=O)/C(=C\c2ccc(N3CCOCC3)o2)C(=O)NC1=S	Rango complex inh 65µM
N=C1/C(=C/c2ccc(OC(=O)c3ccco3)cc2)C(=O)N=C2SC=CN12	Rango dissoc inh inconclusive, Rango complex inh inconclusive
Fc1ccc(-c2nc3c(-c4ccc(F)cc4)cnn3cc2CCN2CCOCC2)cc1	Rango complex inh inconclusive
COCOC1CCC2C3CCC4=CC(=O)CCC4=C3C=CC12C (stereo not given)	Rango dissoc inh 21µM, Rango complex inh inconclusive (no result: MmCpn inh)
Cn1nc(-c2ccccc2)nc2c(=O)n(C)c(=O)nc1-2	Giardia kill -89 (no result: Rango dissoc inh, CCT modulator, MmCpn inh, Rango complex inh)
CCn1nc(-c2ccccc2)nc2c(=O)n(C)c(=O)nc1-2	Rango dissoc inh inconclusive, Giardia kill -89
Cc1nc2c(=O)n(C)c(=O)nc-2n(C)n1	Giardia kill -107
COC(=O)[C@H]1[C@H]2C[C@@H]3c4[nH]c5cc(OC)ccc5c4CCN3C[C@H]2C[C@@H](OC(=O)/C=C/c2cc(OC)c(OC)c(OC)c2)[C@@H]1OC	Rango dissoc inh 5.8µM, Rango complex inh inconclusive
Cc1ccccc1N(CC(=O)NC1CCCC1)C(=O)c1csnn1	none
CC1CN(c2ccc([N+](=O)[O-])c3cccnc23)CC(C)N1 (stereo not given)	Giardia kill -86
O=[N+]([O-])c1ccc(N2CCCC2)c2ncccc12	none
CC1CCCC(C)N1C(=O)CSc1nc2c(c(=O)n(C)c(=O)n2C)n1C (stereo not given)	MmCpn inh inconclusive
Cc1cc([N+](=O)[O-])c2ccccc2[n+]1[O-]	Giardia kill -88
Cc1ccccc1[N+](=O)[O-]	none
CCCCNC(=O)/C(C#N)=c1\s/c(=C\c2ccccc2OC(F)F)c(=O)n1CCCOC	Rango dissoc inh inconclusive
COC(=O)C1=C(c2ccc(-c3ccccc3)c(F)c2)C[C@@H]2CC[C@H]1N2C(=O)N1CCCC1	CCT modulator -33
COC(=O)C1=C(c2ccc(-c3ccccc3)c(F)c2)C[C@@H]2CC[C@H]1N2C(=O)N1CCCCC1	none
N#Cc1c(Cl)nc(Cl)c2c1CCN(Cc1ccccc1)C2	Rango dissoc inh 5.2µM[inhibitor], Rango complex inh inconclusive
COc1ccc(-c2nc3ccccc3c(=O)n2-c2ccc(OC)cc2)cc1	none
COc1ccc(-n2c(SCCN(C)C)nc3ccccc3c2=O)cc1	CCT modulator -113
CNC(=O)Oc1ccc(-c2cn3cc(C)ccc3n2)cc1	Giardia kill -108
CNC(=O)Oc1cccc(-c2cn3cc(Cl)ccc3n2)c1	Giardia kill inconclusive
CN1CCc2nc(SCc3cccc(Br)c3)c(C#N)cc2C1	Rango dissoc inh 16µM, Rango complex inh inconclusive
O=S(c1ccccc1)c1ccccc1	Rango complex inh inconclusive (no result: MmCpn inh)
Cc1ncc([N+](=O)[O-])n1CCOc1nonc1N	Giardia kill -87
Nc1nonc1OCCCCOc1nonc1N	none
CCOC(=O)CCCc1cc[c]([Sb](=[O])([OH])[OH])cc1	none (no result: Rango dissoc inh, CCT modulator, MmCpn inh, Rango complex inh)
O=C(c1cn(Cc2ccccc2F)c2ncccc12)C(F)(F)F	CCT modulator -36
C[C@@H]1C(=O)O[C@H]2C[C@@]34[C@H]5C[C@@H](C(C)(C)C)[C@]36[C@@H](OC(=O)[C@@H]6O)O[C@@]4(C(=O)O5)[C@]21O	none
COc1ccccc1CNC(=O)C(NS(=O)(=O)c1ccc2c(c1)oc(=O)n2C)C(C)C (stereo not given)	Rango complex inh inconclusive
O=[N+]([O-])c1ccc2c(c1)C(c1ccccc1)=NCCN2	none
O=[N+]([O-])c1ccc(-c2ccccc2)c([As](=O)(O)O)c1	Giardia kill -82
CC1(C)CC2CC(C)(CN2S(=O)(=O)c2cccc(C(=O)OCC(=O)NC(N)=O)c2)C1 (stereo not given)	Rango complex inh inconclusive
Cc1cc(=O)n2[nH]c(C)cc2n1	none
Nc1ccc(-c2ccccc2)cc1	CCT modulator -52 (no result: MmCpn inh)
COc1ccc(O)c(CN2CCCC(C(=O)c3ccccc3SC)C2)c1 (stereo not given)	CCT modulator -45
Cc1ccc(C(=O)Cn2c(-c3ccccc3)noc2=O)cc1	Rango complex inh inconclusive
C=Cn1ccnc1P(=S)(c1nccn1C=C)C1CCCCC1	CCT modulator -77
COC(=O)c1ccccc1OC(=O)c1ccc(Br)o1	Rango complex inh inconclusive
Cc1cccc(N2C(=O)/C(=C/c3ccc(CN(CCC#N)S(C)(=O)=O)o3)C(=O)NC2=S)c1	Rango dissoc inh 23µM, Rango complex inh inconclusive
CCOP(=O)(OCC)/C(C#N)=C/c1cc(OC)ccc1OC	Rango dissoc inh inconclusive, Rango complex inh inconclusive

Assay outcomes (PubChem)
